Patent US20240286998A1, “F[…], ANALOGUES THEREOF, AND METHODS USING SAME” (Saint Joseph's University, priority 2021, published 2024)

Protein sequences, listed by entry. Tags and fused reporters are not part of them. Residues count along the entry.
UniProt P28223, whole entry: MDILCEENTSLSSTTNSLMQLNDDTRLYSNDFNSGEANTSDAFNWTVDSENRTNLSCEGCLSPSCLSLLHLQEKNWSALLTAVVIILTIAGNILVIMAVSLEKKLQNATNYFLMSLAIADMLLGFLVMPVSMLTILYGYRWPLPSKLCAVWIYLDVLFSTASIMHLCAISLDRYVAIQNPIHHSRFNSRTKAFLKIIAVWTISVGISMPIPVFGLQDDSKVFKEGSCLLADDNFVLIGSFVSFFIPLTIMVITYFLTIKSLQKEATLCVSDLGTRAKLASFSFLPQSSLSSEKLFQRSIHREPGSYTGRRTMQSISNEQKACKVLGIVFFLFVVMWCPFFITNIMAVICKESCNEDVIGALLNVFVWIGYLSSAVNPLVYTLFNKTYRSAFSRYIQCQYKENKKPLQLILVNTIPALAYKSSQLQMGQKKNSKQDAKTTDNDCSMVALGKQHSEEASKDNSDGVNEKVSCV
UniProt P28335, 33-458 limits assumed: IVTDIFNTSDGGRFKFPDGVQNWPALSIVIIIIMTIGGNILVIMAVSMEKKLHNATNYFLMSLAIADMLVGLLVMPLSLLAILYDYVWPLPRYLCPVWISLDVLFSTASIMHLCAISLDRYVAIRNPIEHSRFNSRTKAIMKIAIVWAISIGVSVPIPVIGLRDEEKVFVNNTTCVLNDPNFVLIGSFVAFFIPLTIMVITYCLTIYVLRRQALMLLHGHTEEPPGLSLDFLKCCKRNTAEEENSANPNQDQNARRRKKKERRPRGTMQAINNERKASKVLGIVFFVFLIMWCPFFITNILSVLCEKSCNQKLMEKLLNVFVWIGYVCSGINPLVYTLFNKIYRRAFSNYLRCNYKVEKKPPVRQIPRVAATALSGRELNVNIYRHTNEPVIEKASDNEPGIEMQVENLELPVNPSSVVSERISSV
UniProt P41595, whole entry: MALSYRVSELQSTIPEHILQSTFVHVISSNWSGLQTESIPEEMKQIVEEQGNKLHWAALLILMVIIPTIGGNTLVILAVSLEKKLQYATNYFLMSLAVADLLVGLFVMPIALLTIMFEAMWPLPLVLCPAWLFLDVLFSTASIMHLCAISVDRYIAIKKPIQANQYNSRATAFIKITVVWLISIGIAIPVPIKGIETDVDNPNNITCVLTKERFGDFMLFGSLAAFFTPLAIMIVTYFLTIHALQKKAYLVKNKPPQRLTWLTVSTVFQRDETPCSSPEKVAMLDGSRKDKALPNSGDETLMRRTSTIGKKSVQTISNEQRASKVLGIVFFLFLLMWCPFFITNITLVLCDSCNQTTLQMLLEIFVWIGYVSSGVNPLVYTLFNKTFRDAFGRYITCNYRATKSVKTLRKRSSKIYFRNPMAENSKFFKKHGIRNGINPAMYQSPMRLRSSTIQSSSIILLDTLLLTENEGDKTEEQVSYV
UniProt P08908, whole entry: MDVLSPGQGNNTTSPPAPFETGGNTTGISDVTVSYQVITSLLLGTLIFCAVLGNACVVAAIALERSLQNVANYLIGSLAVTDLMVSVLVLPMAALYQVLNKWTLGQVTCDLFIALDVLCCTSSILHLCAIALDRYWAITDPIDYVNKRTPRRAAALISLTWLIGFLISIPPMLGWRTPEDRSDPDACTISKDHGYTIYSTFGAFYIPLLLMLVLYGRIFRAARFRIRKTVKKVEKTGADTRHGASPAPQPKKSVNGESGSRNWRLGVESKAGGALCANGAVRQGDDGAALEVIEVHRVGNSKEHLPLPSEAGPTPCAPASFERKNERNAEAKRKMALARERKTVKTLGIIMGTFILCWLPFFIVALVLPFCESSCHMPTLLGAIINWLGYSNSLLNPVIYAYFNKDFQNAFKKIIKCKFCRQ

What was measured:
[1] = molecular target: 5-HT2A (Homo sapiens (Human), UniProt P28223); details: IA = Inactive; N=1-3
[2] = molecular target: 5-HT2C (Homo sapiens (Human), UniProt P28335); details: IA = Inactive; N=1-3
[3] = molecular target: 5-HT2B (Homo sapiens (Human), UniProt P41595); details: IA = Inactive; N=1-3
[4] = molecular target: Serotonin 5-HT2A (human) (Homo sapiens (Human), UniProt P28223); details: 1 nM [3H]-ketanserin, Cheng-Prusoff, N=1-3
[5] = molecular target: 5-HT1A (Homo sapiens (Human), UniProt P08908); details: cAMP inhibition, 0.2 μM isoproterenol; IA = Inactive

SMILES: CCN(CC)CCc1c[nH]c2ccc(F)cc12
- 5-HT2A-Ca2+ FLUX Emax (% 5-HT) [1]: 103.6 ± 0.8 % 5-HT
- 5-HT2A-Ca2+ FLUX pEC50 [1]: 8.71 ± 0.03
- 5-HT2C-Ca2+ FLUX Emax (% 5-HT) [2]: 109.6 ± 2.3 % 5-HT
- 5-HT2C-Ca2+ FLUX pEC50 [2]: 8.45 ± 0.06
- 5-HT2B-Ca2+ FLUX Emax (% 5-HT) [3]: 92.3 ± 1.0 % 5-HT
- 5-HT2B-Ca2+ FLUX pEC50 [3]: 8.69 ± 0.04
- 5-HT2A pKi ± SEM [4]: 6.12
- 5-HT1A-cAMP Emax (% 5-HT) [5]: 92.8 ± 1.8 % 5-HT
- 5-HT1A-cAMP pEC50 [5]: 6.84 ± 0.05
